Protein sequences, listed by entry. Tags and fused reporters are not part of them. Residues count along the entry.
UniProt P06276, 29-602: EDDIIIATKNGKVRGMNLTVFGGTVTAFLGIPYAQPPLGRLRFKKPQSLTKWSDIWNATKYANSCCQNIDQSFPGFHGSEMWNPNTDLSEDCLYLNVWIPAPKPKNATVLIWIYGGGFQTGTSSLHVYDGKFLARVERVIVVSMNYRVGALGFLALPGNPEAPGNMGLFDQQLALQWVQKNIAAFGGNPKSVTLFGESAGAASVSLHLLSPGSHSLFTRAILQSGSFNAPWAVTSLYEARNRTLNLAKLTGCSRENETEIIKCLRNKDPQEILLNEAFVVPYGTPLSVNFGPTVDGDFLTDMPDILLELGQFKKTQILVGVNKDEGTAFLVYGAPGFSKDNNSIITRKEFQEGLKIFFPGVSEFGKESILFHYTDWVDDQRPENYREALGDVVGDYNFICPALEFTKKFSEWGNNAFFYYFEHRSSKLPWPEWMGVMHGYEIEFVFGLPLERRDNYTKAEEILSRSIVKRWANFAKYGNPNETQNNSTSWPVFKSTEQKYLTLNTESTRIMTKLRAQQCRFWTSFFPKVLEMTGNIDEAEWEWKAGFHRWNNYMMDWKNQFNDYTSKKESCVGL

In patent US20240383830A1, “NOVEL CANNABIDIOL DERIVATIVE, METHOD FOR PREPARING SAME, AND COMPOSITION FOR COGNITIVE FUNCTION I[…]” (priority 2021, published 2024):

Target: Butyrylcholinesterase (BuChE) (Homo sapiens, UniProt P06276)
Test: Butyrylcholinesterase inhibition efficiency (butyrylthiocholine/DTNB absorbance)
Assay type: biochemical
Conditions: 0.5 U/ml enzyme, butyrylthiocholine substrate, compound 0-200 μM
Procedure: Concentrations of 0, 2, 5, 10, 20, 50, 100, and 200 μM of the synthesized compounds were prepared by dilution in 10% DMSO, 63% phosphate buffer, and 27% tween 80, and 50 μl was dispensed into a 96-well plate. Acetylcholinesterase or butyrylcholinesterase was prepared at 0.5 U/ml, 50 μl was added to a 96-well plate, mixed with the aliquoted compound, and left for 10 minutes. The substrate, acetylthiocholine or butyrylthiocholine, was prepared at 0.4mg/ml, then 50 μl was added to a 96-well plate and left for 20 minutes. Dithionitrobenzoic acid (DTNB) was prepared at 1.2 mg/ml, then 50 μl was added to a 96-well plate and left for 10minutes.

SMILES: CCN(C)C(=O)Oc1cccc([C@H](C)N(C)C)c1 [rivastigmine, reference compound]
- IC50: 14.9 µM
